Source: ChEMBL document CHEMBL1121753 (J Med Chem, 1981)

What follows are compounds tested on ADJ/PC6 (assay: Compound was tested for dose required to kill 50 % of ADJ/PC6 mouse plasma cell tumor in a group).
[O-][P@+]1(N(CCCl)CCCl)NC[C@@H](Cl)CO1 gave an LD50 of 380 mg/kg. [O-][P@+]1(N(CCCl)CCCl)NC[C@@H](F)CO1 gave an LD50 of 320 mg/kg. In the case of [O-][P@+]1(N(CCCl)CCCl)NC[C@H](F)CO1, the LD50 is reported as 320 mg/kg. In the case of [O-][P@+]1(N(CCCl)CCCl)NC[C@H](Cl)CO1, the LD50 is reported as 540 mg/kg.
